Reference: ChEMBL document CHEMBL5512692, “Colloidal Aggregation Confounds Cell-Based Covid-19 Antiviral Screens” (J Med Chem, 2024)

Experiment: Inhibition of porcine heart MDH using oxaloacetic acid as substrate preincubated for 5 mins followed by substrate and […] addition and measured for 80 sec by absorbance based analysis
Design: species or system Sus scrofa

In the case of `O=C(O[C@@H]1Cc2c(O)cc(O)cc2O[C@@H]1c1cc(O)c(O)c(O)c1)c1cc(O)c(O)c(O)c1` [EPIGALOCATECHIN GALLATE], the IC50 is reported as 5.15 µM.
